Some of the results follow.

What all share (experiment): FOREST: bead pull-down of RNA structure library v1, barcode microarray; U1A/LIN28A: 20 mM HEPES pH 7.5, 80 mM KCl, 20 mM NaCl, 10% glycerol, 2 mM DTT, 0.1 ug/uL BSA, 4 C; BG4/CIRBP/DHX36: 10 mM Tris-HCl pH 7.5, 100 mM KCl (or LiCl),; high values mean tight binding
The target in one experiment is T1, LIN28A (human?, UniProt Q9H9Z2 1-209).
T1 sequence: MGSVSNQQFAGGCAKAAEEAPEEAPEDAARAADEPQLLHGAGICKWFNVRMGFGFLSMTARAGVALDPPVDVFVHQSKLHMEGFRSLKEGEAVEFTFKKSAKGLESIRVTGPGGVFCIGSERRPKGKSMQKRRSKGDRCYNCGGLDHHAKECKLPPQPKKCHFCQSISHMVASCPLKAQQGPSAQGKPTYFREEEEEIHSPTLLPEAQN

Another experiment deals with T2, CIRBP (Homo sapiens, UniProt Q14011 1-172).
T2 sequence: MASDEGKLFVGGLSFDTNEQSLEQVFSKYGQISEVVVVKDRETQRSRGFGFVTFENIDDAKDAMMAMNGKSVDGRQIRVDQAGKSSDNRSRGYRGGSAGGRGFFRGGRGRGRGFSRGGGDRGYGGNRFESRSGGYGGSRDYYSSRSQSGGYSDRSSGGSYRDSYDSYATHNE

Another experiment concerns the target T3, DHX36 (Homo sapiens, UniProt Q9H2U1 1-1008).
T3 sequence: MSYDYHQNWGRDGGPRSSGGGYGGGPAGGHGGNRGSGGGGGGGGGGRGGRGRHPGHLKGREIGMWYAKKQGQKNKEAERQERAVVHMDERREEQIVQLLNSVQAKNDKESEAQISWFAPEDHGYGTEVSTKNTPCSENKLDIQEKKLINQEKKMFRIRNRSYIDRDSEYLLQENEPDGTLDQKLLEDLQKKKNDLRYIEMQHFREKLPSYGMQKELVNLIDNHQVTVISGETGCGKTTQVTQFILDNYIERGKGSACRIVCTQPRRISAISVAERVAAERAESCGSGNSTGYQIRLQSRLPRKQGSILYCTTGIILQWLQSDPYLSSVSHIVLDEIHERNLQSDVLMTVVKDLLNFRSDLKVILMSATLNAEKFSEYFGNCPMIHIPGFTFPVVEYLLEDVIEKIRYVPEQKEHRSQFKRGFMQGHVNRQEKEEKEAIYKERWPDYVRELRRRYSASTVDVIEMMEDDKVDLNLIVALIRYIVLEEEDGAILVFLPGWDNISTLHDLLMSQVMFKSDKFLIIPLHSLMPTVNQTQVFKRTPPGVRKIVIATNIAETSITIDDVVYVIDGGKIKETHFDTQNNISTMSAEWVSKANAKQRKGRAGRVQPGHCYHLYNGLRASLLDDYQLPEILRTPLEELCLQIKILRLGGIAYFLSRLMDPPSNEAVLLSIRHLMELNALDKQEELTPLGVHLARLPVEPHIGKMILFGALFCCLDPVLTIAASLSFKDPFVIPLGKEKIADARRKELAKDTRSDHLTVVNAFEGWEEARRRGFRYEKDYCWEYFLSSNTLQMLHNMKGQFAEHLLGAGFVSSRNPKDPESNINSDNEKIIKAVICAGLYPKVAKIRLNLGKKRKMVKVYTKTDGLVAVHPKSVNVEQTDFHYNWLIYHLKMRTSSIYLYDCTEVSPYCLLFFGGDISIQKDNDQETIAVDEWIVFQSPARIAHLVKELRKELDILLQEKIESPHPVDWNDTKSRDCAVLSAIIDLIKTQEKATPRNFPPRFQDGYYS

B1: hsa-mir-548y (structured_RNA)
RNA: GGGAGAUAAAGGCCCGUGGGAAACUGACGGUGUACGAAGUUUCAGCUGCCAUUACUCUCAGUGGCAGCUGAAGCUUCGUGCAC
Consider B1, for which the results for the binding signal in the experiment with LIN28A, in the experiment with CIRBP and in the experiment with DHX36 were -1.73 z-score, -0.397 z-score and -1.07 z-score, respectively.

B2: hsa-mir-4659a (structured_RNA)
RNA: GGGAAUUCUAAGGCGGGUCAGCUUGCAAGGUGUACGAAGUUUCAGCGAAAACUUUGGAGAAAAAUUUUCGCUGAAGCUUCGUGCAC
Consider B2, for which the binding signal is -1.79 z-score in the experiment with LIN28A, -0.683 z-score in the experiment with CIRBP and -0.758 z-score with DHX36.

B3: hsa-mir-2276 (structured_RNA)
RNA: GGGACUUAUUAGUCAAGAACCCAACCCCGGUGUACGAAGUUUCAGCCAGACGGCUUUCUCUCCGAAUGUCUGGCUGAAGCUUCGUGCAC
B3: the binding signal with LIN28A was -1.68 z-score; in the experiment with CIRBP it was -0.299 z-score; with DHX36 it was -1.51 z-score.

B4: hsa-mir-4268 (structured_RNA)
RNA: GGGCUCGUAGGAGGCCGGUCACCAUAUAGGUGUACGAAGUUUCAGCUGCCCUAGCGGCUGCUGAAGCUUCGUGCAC
On to B4, for which the binding signal is -1.64 z-score with LIN28A, -0.624 z-score with CIRBP and 0.063 z-score in the experiment with DHX36.

B5: hsa-mir-4730 (structured_RNA)
RNA: GGGAACUCAAAUGCACCCCGUCACAGAGGGUGUACGAAGUUUCAGCGCCAGAUGCUGAGCGAUGGCGCUGAAGCUUCGUGCAC
Regarding B5, the binding signal with LIN28A was -1.81 z-score; in the experiment with CIRBP, -0.703 z-score; with DHX36 it was -0.826 z-score.

B6: hsa-mir-4801 (structured_RNA)
RNA: GGGAACUUAGCGGGUUCAUGUCUCGAAUGGUGUACGAAGUUUCAGCUGUAAAAUGUAAUAACAUUUCUUAUGUUUAAAACACUUUACAGCUGAAGCUUCGUGCAC
For the molecule B6, the binding signal with LIN28A is -1.68 z-score; in the experiment with CIRBP, -2.04 z-score; with DHX36, -0.379 z-score.

B7: hsa-mir-548ag-1 (structured_RNA)
RNA: GGGAGCAUUACUAUCGUGUCCCGGAGAAGGUGUACGAAGUUUCAGCCUGCUUUUAAAGGUAAUGGCAAGCUGAAGCUUCGUGCAC
As for B7, the binding signal was -1.69 z-score in the experiment with LIN28A, -1.35 z-score in the experiment with CIRBP and -1.22 z-score with DHX36.

B8: hsa-mir-4254 (structured_RNA)
RNA: GGGAGAUCCAGGCCCGCUCAUUUGUGUCGGUGUACGAAGUUUCAGCCUGCAGUGAGUAGGUCUGCCUGCUGAAGCUUCGUGCAC
Regarding B8, the binding signal is -1.62 z-score with LIN28A, -0.679 z-score with CIRBP and -0.841 z-score with DHX36.

B9: hsa-mir-500a (structured_RNA)
RNA: GGGAAUUGGGGACCCGUGUCGAACCAAAGGUGUACGAAGUUUCAGCGAGAGUGCUGUCUGAAUGCAAUGCGCUGAAGCUUCGUGCAC
Turning to B9, the binding signal with LIN28A was -1.75 z-score; with CIRBP, -1.55 z-score; with DHX36, -0.0743 z-score.

B10: hsa-mir-4773-1 (structured_RNA)
RNA: GGGACCACUGAGAGGUGCCCUUCGUAUAGGUGUACGAAGUUUCAGCUCUGCUUUAUUUCAUCAAAGCAGAGCUGAAGCUUCGUGCAC
For B10, the values for the binding signal with LIN28A, with CIRBP and with DHX36 were -1.78 z-score, -1.69 z-score and -1.91 z-score, respectively.

B11: hsa-mir-656 (structured_RNA)
RNA: GGGCAUCGAGCACCCCUGAGCAUCGUAAGGUGUACGAAGUUUCAGCUGUUCACUUUCUAUAUGAUGAAUAGCUGAAGCUUCGUGCAC
Take B11: the binding signal in the experiment with LIN28A was -1.6 z-score; with CIRBP, -0.639 z-score; in the experiment with DHX36 it was -0.908 z-score.

B12: NEAT1_ParasoR_ID9 (structured_RNA)
RNA: GGGAAAAUGGGUCGCCCAUUCUGCCAACGGUGUACGAAGUUUCAGCUCUCACUUAUAAGUGAGAGCUGAAGCUUCGUGCAC
Take B12: the figures for the binding signal in the experiment with LIN28A, with CIRBP and in the experiment with DHX36 were -1.69 z-score, -0.561 z-score and -1.26 z-score, respectively.

B13: hsa-mir-3180-4 (structured_RNA)
RNA: GGGACAGGAUACCAAUGUUUACAGAUCGGGUGUACGAAGUUUCAGCGGAGGCCCCGCUCUGCUGCCGACCCUGUGGAGCGGAGGGUGAAGCCUCCGCUGAAGCUUCGUGCAC
For the molecule B13, the binding signal with LIN28A was -1.81 z-score; in the experiment with CIRBP, -1.67 z-score; with DHX36 it was -0.768 z-score.

B14: hsa-mir-4320 (structured_RNA)
RNA: GGGAUAAGGCCCUACGCACAUAAGUGCAGGUGUACGAAGUUUCAGCUUUCAGAUAACUCGGGAGCUGAAGCUUCGUGCAC
In the case of B14, the binding signal was -1.81 z-score in the experiment with LIN28A, -1.41 z-score with CIRBP and -1.25 z-score with DHX36.

B15: hsa-mir-124-3 (structured_RNA)
RNA: GGGACAAUCAUCCUUCUAGGACGAGACAGGUGUACGAAGUUUCAGCCUUGAUUUAAUGUCUAUACAAUUAAGGCUGAAGCUUCGUGCAC
Turning to B15, the binding signal is -1.74 z-score with LIN28A, -0.411 z-score in the experiment with CIRBP and -0.704 z-score with DHX36.

B16: NEAT1_ParasoR_ID21 (structured_RNA)
RNA: GGGACCAACAACUCUAAUCGUCGCUCACGGUGUACGAAGUUUCAGCAGGUAUAAUUUUUUAAAUUGCUUGCUGAAGCUUCGUGCAC
Consider B16, for which the results for the binding signal in the experiment with LIN28A, with CIRBP and with DHX36 were -1.8 z-score, -0.482 z-score and -0.766 z-score, respectively.

B17: hsa-mir-1260b (structured_RNA)
RNA: GGGAACAUCGCGGGUCCCUCAAUCGAACGGUGUACGAAGUUUCAGCCCAUUAUUGCUACUGUUCAGCAGGUGCUGCUGGUGGUGAUGGGCUGAAGCUUCGUGCAC
With B17, the binding signal was -1.78 z-score in the experiment with LIN28A, 0.635 z-score in the experiment with CIRBP and -1.08 z-score with DHX36.

B18: hsa-mir-6756 (structured_RNA)
RNA: GGGAAUGUCAACCGGGGCAAAUGAUGACGGUGUACGAAGUUUCAGCGGGGCUGAGGCUGAGUCUUCCUCCCGCUGAAGCUUCGUGCAC
With B18, the binding signal in the experiment with LIN28A was -1.76 z-score; in the experiment with CIRBP, -1.31 z-score; in the experiment with DHX36 it was -1.35 z-score.

B19: hsa-mir-5000 (structured_RNA)
RNA: GGGAACCUCCUUAAGGGGCCACACCAAGGGUGUACGAAGUUUCAGCCUGAGUAACUUGUGCUUAUAACUCAGGCUGAAGCUUCGUGCAC
Take B19: the binding signal was -1.61 z-score with LIN28A, -0.904 z-score in the experiment with CIRBP and -1.14 z-score in the experiment with DHX36.

B20: hsa-mir-4490 (structured_RNA)
RNA: GGGAUUAGUAGGCCACGCCUUGUGAUGGGGUGUACGAAGUUUCAGCCAAAGACCAGAACUUAAUGGUCUCUGGCUGAAGCUUCGUGCAC
For the molecule B20, the binding signal was -1.82 z-score with LIN28A, -1.58 z-score in the experiment with CIRBP and -0.936 z-score with DHX36.

B21: hsa-mir-6817 (structured_RNA)
RNA: GGGAAAACCAGUGACGGUUCACCAGCAAGGUGUACGAAGUUUCAGCGUGGAACUGACCUGCCCCCUUUCUCGCUGAAGCUUCGUGCAC
For B21, the binding signal with LIN28A was -1.62 z-score; in the experiment with CIRBP, -1.11 z-score; in the experiment with DHX36, -1.23 z-score.

B22: hsa-mir-548x-2 (structured_RNA)
RNA: GGGACGGGACUCUCAACAAUUACGCCCGGGUGUACGAAGUUUCAGCUUUGCCAUUAAAAGUAAUGGUAAAGCUGAAGCUUCGUGCAC
With B22, the values for the binding signal with LIN28A, in the experiment with CIRBP and with DHX36 were -1.6 z-score, -0.534 z-score and -0.576 z-score, respectively.

B23: hsa-mir-3935 (structured_RNA)
RNA: GGGACAUGAACCCUGAAAGUCUGUUUCGGGUGUACGAAGUUUCAGCUAUGAAGGUAAGCAUUUUUGUAGCUGAAGCUUCGUGCAC
B23: the binding signal with LIN28A was -1.68 z-score; in the experiment with CIRBP it was -0.904 z-score; with DHX36, -1.09 z-score.

B24: hsa-mir-3910-2 (structured_RNA)
RNA: GGGACAUUUUGCGGGGUCCCAGUAUUAGGGUGUACGAAGUUUCAGCCUUUUAUGUGCCUUGAUAUAAAAGGCUGAAGCUUCGUGCAC
Turning to B24, the results for the binding signal with LIN28A, in the experiment with CIRBP and with DHX36 were -1.6 z-score, -0.757 z-score and -0.785 z-score, respectively.

B25: hsa-mir-99b (structured_RNA)
RNA: GGGACCACAUAGAACCAAAUCCACUCGCGGUGUACGAAGUUUCAGCCUUGCGGGGCCUUCGCCGCACACAAGGCUGAAGCUUCGUGCAC
With B25, the binding signal in the experiment with LIN28A is -1.73 z-score; in the experiment with CIRBP, -0.7 z-score; with DHX36 it was 0.578 z-score.

B26: hsa-mir-657 (structured_RNA)
RNA: GGGAAGUCUGAAAGGACGCAGCACCAGUGGUGUACGAAGUUUCAGCGUCCGGGUGGGUUCCGGCAGCUGAAGCUUCGUGCAC
Consider B26, for which the binding signal with LIN28A is -1.75 z-score; in the experiment with CIRBP, -0.737 z-score; with DHX36, -1.4 z-score.
